Data on one compound can be found in ChEMBL document CHEMBL3763146 (J Med Chem, 2016).

The species entered for this assay is Homo sapiens. Nature of the assay: Selectivity ratio of IC50 for human SERT to EC50 for human adrenergic beta3 receptor.

Take `C[C@@H](C(=O)Nc1ccc(C[C@@H]2CC[C@H]([C@H](O)c3ccccc3)N2)cc1)n1ncccc1=O`: the Ratio IC50/EC50 is > 800.
